Blank lines part the entries; values can stand above or below the molecule they belong to.
Tests used:
GPR1 = biological target: T1, GPR1 (Homo sapiens, UniProt P46091); assay: cell-based
T1 construct: expressed in transfected cells; host or cells: COS-7, transient
Experimental: Arrestin recruitment was characterized by measuring the bioluminescence resonance energy transfer (BRET) ratio between luciferase-tagged arrestin3 and either GPR1-eYFP or CMKLR1-eYFP as described previously. In brief, COS-7 cells in 75 cm^2 cell culture flasks were transiently transfected overnight with 7800 ng GPR1-eYFP or CMKLR1-eYFP in pVitro2 and 200 ng Rluc8-Arr3 in pcDNA3 using MetafectenePro according to the manufacturer’s protocol. […] For kinetic measurements, cells were stimulated with agonist in buffer or buffer alone, and fluorescence was measured for 20 min using a Tecan Infinite M 200 Reader (Tecan, Männerdorf, Switzerland) using the filter sets Green1 (YFP emission, luminescence 520–570 nm) and Blue1 (luciferase luminescence 370–480 nm). For concentration–response curves, cells were stimulated with agonist or blank, and luminescence was measured after 10 min. BRET signal was calculated as the ratio of fluorescence divided by luminescence, netBRET signal was calculated by subtracting the BRET signal of unstimulated wells from the respective samples.

GPR1-eYFP (human) = biological target: T2, GPR1-eYFP (human) (UniProt P46091)
T2 sequence: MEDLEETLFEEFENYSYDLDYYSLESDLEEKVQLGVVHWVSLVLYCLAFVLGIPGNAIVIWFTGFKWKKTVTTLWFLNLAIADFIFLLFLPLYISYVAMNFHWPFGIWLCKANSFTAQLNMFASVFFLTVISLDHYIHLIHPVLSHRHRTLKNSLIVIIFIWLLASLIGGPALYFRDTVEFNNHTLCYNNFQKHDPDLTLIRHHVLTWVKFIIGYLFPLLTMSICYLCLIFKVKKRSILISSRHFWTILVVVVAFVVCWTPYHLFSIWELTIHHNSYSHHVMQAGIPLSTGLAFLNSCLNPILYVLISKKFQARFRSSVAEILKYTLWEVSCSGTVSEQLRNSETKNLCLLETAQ

Molecule: CC(C)C[C@H](NC(=O)[C@H](C)NC(=O)[C@H](Cc1ccccc1)NC(=O)[C@H](CCC(N)=O)NC(=O)CNC(=O)[C@@H]1CCCN1C(=O)[C@H](Cc1ccccc1)NC(=O)[C@@H](N)Cc1ccc(O)cc1)C(=O)N[C@@H](CO)C(=O)O [[L^8]-chemerin-9]
- EC50 (GPR1): 1.38 nM
- Emax (GPR1; COS-7): 125 ± 12%

Molecule: C[C@@H]1NC(=O)[C@H](Cc2ccccc2)NC(=O)[C@H](CCC(N)=O)NC(=O)CNC(=O)[C@@H]2CCCN2C(=O)[C@H](Cc2ccccc2)NC(=O)[C@H](Cc2ccc(O)cc2)NC(=O)[C@H](CO)NC(=O)[C@H](Cc2ccccc2)NC1=O [[N–C]-c(chemerin-9)]
- EC50 (GPR1): 132 nM

Molecule: [L^8] chemerin-9 (peptide)
- EC50 of arrestin3 recruitment to GPR1-eYFP (BRET with Rluc8-Arr3, COS-7 cells) (GPR1-eYFP (human)): 1.4 nM

B2: ChemS157 (ligand)
chain: ELTEAQRRGLQVALEEFHKHPPVQWAFQETSVESAVDTPFPAGIFVRLEFKLQQTSCRKRDWKKPECKVRPNGRKRKCLACIKLGSEDKVLGRLVHCPIETQVLREAEEHQETQCLRVQRAGEDPHSFYFPGQFAFS
- EC50 of arrestin3 recruitment to GPR1-eYFP (BRET with Rluc8-Arr3, COS-7 cells) (GPR1-eYFP (human)): 2.1 nM

Other lines, results leading:

- EC50 (GPR1): > 1000 nM
Molecule: C[C@H](NC(=O)[C@H](Cc1ccccc1)NC(=O)[C@H](CCC(N)=O)NC(=O)CNC(=O)[C@@H]1CCCN1)C(=O)N[C@@H](Cc1ccccc1)C(=O)N[C@@H](CO)C(=O)O [Chem^151−157]

- EC50 (GPR1): > 1000 nM
Molecule: C[C@H](NC(=O)[C@@H]1CCCN1C(=O)[C@H](Cc1ccccc1)NC(=O)[C@H](Cc1ccccc1)NC(=O)[C@H](CO)NC(=O)[C@H](Cc1ccc(O)cc1)NC(=O)[C@H](Cc1ccccc1)NC(=O)[C@@H](N)CCC(N)=O)C(=O)NCC(=O)O [scr2C9]

- EC50 of arrestin3 recruitment to GPR1-eYFP (BRET with Rluc8-Arr3, COS-7 cells) (GPR1-eYFP (human)): 2.6 nM
B1: ChemF156 (ligand)
chain: ELTEAQRRGLQVALEEFHKHPPVQWAFQETSVESAVDTPFPAGIFVRLEFKLQQTSCRKRDWKKPECKVRPNGRKRKCLACIKLGSEDKVLGRLVHCPIETQVLREAEEHQETQCLRVQRAGEDPHSFYFPGQFAF
